Literature values in US10111869B2, “Reduction of opioid blood fluctuations” (priority 2009, dated 2018).

Settings: in vivo

Compound: CN1CC[C@]23c4c5ccc(O)c4O[C@H]2C(=O)CC[C@H]3[C@H]1C5 [Hydromorphone]
- analgesic potency relative to morphine: about 7.5 times
